Values of other authors in patent publication US20060093597A1, “Methods of treating involuntary facial spasms and facial wrinkles” (priority 2002, published 2006).

Test system: nerve-evoked twitch response
Settings: reversed by neostigmine; cited from earlier work

coryneine
concentration that blocked the nerve-evoked twitch response: 20 to 150 µM
